## Measured affinities in a library of Ab-14 light chain variants

All variants were tested on one target, the spike HR2 peptide PDVDLGDISGINAS (SARS-CoV-2).

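In library AAYL50, one, two or three CDR residues were substituted; doubles and triples were drawn at random. In AlphaSeq, yeast of one mating type display the scFv and yeast of the other type display the target. Pairs that bind mate more often; barcode pairs of the diploids are counted by sequencing. A regression on co-assayed BCL2-family reference pairs converts the normalised counts of each replicate to an apparent Kd. The assay was run in three technical replicates.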

Parent scFv Ab-14: VH joined to VL by three GGGGS repeats. Changes lie in the light chain CDRs alone.
VH: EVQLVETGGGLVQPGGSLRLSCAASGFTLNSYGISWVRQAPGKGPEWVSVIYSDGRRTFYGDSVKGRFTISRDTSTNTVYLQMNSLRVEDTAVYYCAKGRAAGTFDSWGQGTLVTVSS
VL: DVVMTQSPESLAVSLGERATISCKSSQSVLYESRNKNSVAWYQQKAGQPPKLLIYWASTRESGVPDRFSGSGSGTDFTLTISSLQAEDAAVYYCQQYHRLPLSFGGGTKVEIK

Variants are written as CDR1, CDR2 and CDR3 of the light chain (limits as in the source). Parent: KSSQSVLYESRNKNSVA, WASTRES, QQYHRLPLS. Values are log10 of the apparent Kd in nM; lower means stronger binding. A pair that was not seen in that replicate is written "nd"; this usually means weak binding, but a binder can also be missed. As a blank, each scFv also met three strains without target: over library AAYL50, 18% of these pairings were detected, typically at 4.19 and seldom below 2.99. For each scFv, signals with the empty controls are counted beside the result, with their mean in brackets.

{"CDR-L1": "CSSQSVLYESRNKNSVA", "CDR-L2": "WASTREY", "CDR-L3": "QYYHRLPLS", "replicates, log10 nM": "2.93 2.36 2.18", "control signals": "1/9 (4.00)"}
{"CDR-L1": "KSSQSVLYESRNKPSVA", "CDR-L2": "WAETGES", "CDR-L3": "QQYHRLPLS", "replicates, log10 nM": "nd 3.03 nd", "control signals": "1/9 (4.71)"}
{"CDR-L1": "GSSQSVLYESRNKNSVA", "CDR-L2": "LFSTRES", "CDR-L3": "QQYHRLPLS", "replicates, log10 nM": "nd nd nd", "control signals": "0/9"}
{"CDR-L1": "KSSQSVLYESRNKNSVA", "CDR-L2": "EASTGEK", "CDR-L3": "QQYHRLPLS", "replicates, log10 nM": "0.42 0.66 0.71", "control signals": "4/9 (4.24)"}
{"CDR-L1": "KSSTSVLYEPRNKNSVA", "CDR-L2": "WASTRES", "CDR-L3": "QQYERLPLS", "replicates, log10 nM": "0.87 1.13 0.75", "control signals": "2/9 (3.61)"}
{"CDR-L1": "KSSQSVLYESRNKNSVA", "CDR-L2": "HGSTRES", "CDR-L3": "QQYHCLPLS", "replicates, log10 nM": "0.70 0.93 0.77", "control signals": "4/9 (4.21)"}
{"CDR-L1": "KSRQSVLYESRNKSSVA", "CDR-L2": "WAQTRES", "CDR-L3": "QQYHRLPLS", "replicates, log10 nM": "nd 2.44 2.60", "control signals": "0/9"}
{"CDR-L1": "ASSQSVLYGSRNKNFVA", "CDR-L2": "WASTRES", "CDR-L3": "QQYHRLPLS", "replicates, log10 nM": "6.67 5.20 5.51", "control signals": "6/9 (4.52)"}
{"CDR-L1": "KSSDSVLYESRNKNSVA", "CDR-L2": "WASERES", "CDR-L3": "QQYHGLPLS", "replicates, log10 nM": "0.59 0.83 0.76", "control signals": "5/9 (4.91)"}
{"CDR-L1": "KSSQSVLYESRFKNSVA", "CDR-L2": "WASTRES", "CDR-L3": "QQKHGLPLS", "replicates, log10 nM": "1.42 1.53 1.87", "control signals": "0/9"}
{"CDR-L1": "KSSQSVLYESRNKNSVA", "CDR-L2": "WASTMES", "CDR-L3": "MQYHWLPLS", "replicates, log10 nM": "3.63 3.14 nd", "control signals": "2/9 (4.97)"}
{"CDR-L1": "KSSQSVLYYSRNKNSVA", "CDR-L2": "WASTRES", "CDR-L3": "KQYHRGPLS", "replicates, log10 nM": "2.31 1.99 2.60", "control signals": "2/9 (4.00)"}
{"CDR-L1": "KSSQSVLYDSRNYNGVA", "CDR-L2": "WASTRES", "CDR-L3": "QQYHRLPLS", "replicates, log10 nM": "2.55 2.13 2.54", "control signals": "1/9 (3.65)"}
{"CDR-L1": "KSSQSTLYESRNKNQVA", "CDR-L2": "WASTRES", "CDR-L3": "PQYHRLPLS", "replicates, log10 nM": "nd nd nd", "control signals": "0/9"}
{"CDR-L1": "KSSQSVLYESRNENVVA", "CDR-L2": "NASTRES", "CDR-L3": "QQYHRLPLS", "replicates, log10 nM": "0.07 0.24 -0.01", "control signals": "0/9"}
{"CDR-L1": "KSSQSVLYVSRGKNSVA", "CDR-L2": "WASTRES", "CDR-L3": "QQYHRWPLS", "replicates, log10 nM": "2.60 1.71 nd", "control signals": "1/9 (3.19)"}
{"CDR-L1": "KSSQILLAESRNKNSVA", "CDR-L2": "WASTRES", "CDR-L3": "QQYHRLPLS", "replicates, log10 nM": "2.22 2.57 2.63", "control signals": "3/9 (4.24)"}
{"CDR-L1": "KSAQSVLYESRNKNSVA", "CDR-L2": "WLSTRES", "CDR-L3": "GQYHRLPLS", "replicates, log10 nM": "4.40 2.96 2.68", "control signals": "2/9 (3.81)"}
{"CDR-L1": "KSSQSVLYPSRNKNSVA", "CDR-L2": "RASTRES", "CDR-L3": "VQYHRLPLS", "replicates, log10 nM": "nd nd nd", "control signals": "0/9"}
{"CDR-L1": "KSSQSVLYEARNKNSVA", "CDR-L2": "WSSTRES", "CDR-L3": "QQYARLPLS", "replicates, log10 nM": "0.70 1.01 0.87", "control signals": "2/9 (5.49)"}
{"CDR-L1": "WSSQSVLCESRNKNSVA", "CDR-L2": "WALTRES", "CDR-L3": "QQYHRLPLS", "replicates, log10 nM": "nd 4.62 nd", "control signals": "0/9"}
{"CDR-L1": "KSSQSVLYESRNKNSVA", "CDR-L2": "WASTGEF", "CDR-L3": "QQYHRLPLF", "replicates, log10 nM": "nd nd nd", "control signals": "0/9"}

The first 2 variants above that were never detected:

{"CDR-L1": "GSSQSVLYESRNKNSVA", "CDR-L2": "LFSTRES", "CDR-L3": "QQYHRLPLS", "replicates, log10 nM": "nd nd nd", "control signals": "0/9"}
{"CDR-L1": "KSSQSTLYESRNKNQVA", "CDR-L2": "WASTRES", "CDR-L3": "PQYHRLPLS", "replicates, log10 nM": "nd nd nd", "control signals": "0/9"}

The measurements come from Engelhart et al. 2022 (doi:10.1038/s41597-022-01779-4) through the FLAb antibody collection.